How the values were obtained:
LPA5 receptor = LPA5 receptor (Homo sapiens (Human), UniProt Q9H1C0); experiment: In vitro LPA5 receptor assay (LPA-driven intracellular calcium release, FLIPR); type: cell-based; conditions: RH7777 cells expressing human LPA5 receptors; LPA at EC90
Experimental: In Vitro LPA5 Receptor Assay
(§1) Engagement of the LPA5 receptor by its ligand, oleoyl-L-α-lysophosphatidic acid (LPA), leads to the release of intracellular stores of calcium into the cytoplasm mediated through a Gq-driven increase in inositol triphosphate (IP3) levels. Gq is a heterotrimeric G protein subunit that activates phospholipase C.
The ability of test compounds to prevent LPA-driven intracellular release of stored calcium from RH7777 cells expressing human LPA5 receptors was assayed by stimulating the cells with LPA in the presence of various test compounds to measure the test compounds'antagonism, i.e. activity in vitro.
(§2) Approximately 10,000 cells in normal culture medium (Minimal Essential Media, 10% Foetal Calf Serum) were dispensed per assay well in a black clear bottom poly-D-lysine coated 384 well plate (Corning). Cells were allowed to settle for thirty minutes at room temperature before being incubated overnight at 37° C., 5% CO2. […]
(§3) To test for antagonist activity, test compounds at a final concentration range between 0.32 nM-10 μM (diluted in assay buffer) were added to the assay wells and allowed to incubate for fifteen minutes. […] Ligand-dependent changes in intracellular calcium levels were determined by measuring changes in fluorescence of the dye over […] following excitation over […].

Amino acid sequences for entries named in this document (tags omitted). A change or cut given only in a name is not applied to a line headed by its entry.
UniProt Q9H1C0: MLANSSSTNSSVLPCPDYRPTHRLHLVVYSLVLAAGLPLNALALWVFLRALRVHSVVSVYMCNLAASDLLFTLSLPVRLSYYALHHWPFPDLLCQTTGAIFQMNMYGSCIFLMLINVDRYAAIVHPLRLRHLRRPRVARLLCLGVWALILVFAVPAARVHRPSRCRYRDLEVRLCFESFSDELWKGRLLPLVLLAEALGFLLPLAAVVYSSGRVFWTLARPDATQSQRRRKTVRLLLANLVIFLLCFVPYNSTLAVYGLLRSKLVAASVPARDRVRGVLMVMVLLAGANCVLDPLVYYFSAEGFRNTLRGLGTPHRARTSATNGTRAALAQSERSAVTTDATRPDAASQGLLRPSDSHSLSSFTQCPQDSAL
UniProt Q92633: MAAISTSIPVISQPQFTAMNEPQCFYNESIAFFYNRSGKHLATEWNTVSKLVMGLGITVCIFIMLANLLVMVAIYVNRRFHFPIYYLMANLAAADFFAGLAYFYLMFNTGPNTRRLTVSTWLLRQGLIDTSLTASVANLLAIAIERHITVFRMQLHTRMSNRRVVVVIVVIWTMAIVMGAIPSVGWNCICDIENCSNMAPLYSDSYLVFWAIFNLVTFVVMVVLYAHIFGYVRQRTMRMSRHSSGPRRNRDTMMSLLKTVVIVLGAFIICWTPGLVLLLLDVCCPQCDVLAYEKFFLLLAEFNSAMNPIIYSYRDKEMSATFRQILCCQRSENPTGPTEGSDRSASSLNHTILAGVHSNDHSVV

human LPA1 receptors = human LPA1 receptors (Homo sapiens (Human), UniProt Q92633); experiment: In vitro LPA1 receptor assay (LPA-driven intracellular calcium release, FLIPR); type: cell-based; conditions: RH7777 cells expressing human LPA1 receptors; LPA at EC80
Experimental: In Vitro LPA1 Receptor Assay
as §1, with “LPA1” for “LPA5”
The ability of test compounds to prevent LPA-driven intracellular release of stored calcium from RH7777 cells expressing human LPA1 receptors was assayed by stimulating the cells with LPA in the presence of various test compounds to measure the test compounds' antagonism, i.e. activity in vitro.
as §2, with “(Dulbecco's Modified Eagle” for “(Minimal Essential”, “collagen” for “poly-D-lysine”, “(Beckton Dickinson).” for “(Corning).”
as §3, with “twenty five” for “fifteen”

CCN(Cc1ccc(C(=O)O)cc1)C(=O)c1ccc(Oc2ccccc2OC)cc1 [Example 28, 4-((N-Ethyl-4-(2-methoxyphenoxy)benzamido)methyl)benzoic acid]
IC50 (LPA5 receptor): 45 nM
IC50 (human LPA1 receptors): 46 nM

Source: patent publication US9464060B2, “Compounds” (TAKEDA PHARMACEUTICAL COMPANY LIMITED, priority 2013, dated 2016)
